We go through one compound from publication PMC4759478 (2016).

Chains of the proteins cited; added tags and fusions are not shown. Residues count along the entry.
UniProt P00533, 25-1210: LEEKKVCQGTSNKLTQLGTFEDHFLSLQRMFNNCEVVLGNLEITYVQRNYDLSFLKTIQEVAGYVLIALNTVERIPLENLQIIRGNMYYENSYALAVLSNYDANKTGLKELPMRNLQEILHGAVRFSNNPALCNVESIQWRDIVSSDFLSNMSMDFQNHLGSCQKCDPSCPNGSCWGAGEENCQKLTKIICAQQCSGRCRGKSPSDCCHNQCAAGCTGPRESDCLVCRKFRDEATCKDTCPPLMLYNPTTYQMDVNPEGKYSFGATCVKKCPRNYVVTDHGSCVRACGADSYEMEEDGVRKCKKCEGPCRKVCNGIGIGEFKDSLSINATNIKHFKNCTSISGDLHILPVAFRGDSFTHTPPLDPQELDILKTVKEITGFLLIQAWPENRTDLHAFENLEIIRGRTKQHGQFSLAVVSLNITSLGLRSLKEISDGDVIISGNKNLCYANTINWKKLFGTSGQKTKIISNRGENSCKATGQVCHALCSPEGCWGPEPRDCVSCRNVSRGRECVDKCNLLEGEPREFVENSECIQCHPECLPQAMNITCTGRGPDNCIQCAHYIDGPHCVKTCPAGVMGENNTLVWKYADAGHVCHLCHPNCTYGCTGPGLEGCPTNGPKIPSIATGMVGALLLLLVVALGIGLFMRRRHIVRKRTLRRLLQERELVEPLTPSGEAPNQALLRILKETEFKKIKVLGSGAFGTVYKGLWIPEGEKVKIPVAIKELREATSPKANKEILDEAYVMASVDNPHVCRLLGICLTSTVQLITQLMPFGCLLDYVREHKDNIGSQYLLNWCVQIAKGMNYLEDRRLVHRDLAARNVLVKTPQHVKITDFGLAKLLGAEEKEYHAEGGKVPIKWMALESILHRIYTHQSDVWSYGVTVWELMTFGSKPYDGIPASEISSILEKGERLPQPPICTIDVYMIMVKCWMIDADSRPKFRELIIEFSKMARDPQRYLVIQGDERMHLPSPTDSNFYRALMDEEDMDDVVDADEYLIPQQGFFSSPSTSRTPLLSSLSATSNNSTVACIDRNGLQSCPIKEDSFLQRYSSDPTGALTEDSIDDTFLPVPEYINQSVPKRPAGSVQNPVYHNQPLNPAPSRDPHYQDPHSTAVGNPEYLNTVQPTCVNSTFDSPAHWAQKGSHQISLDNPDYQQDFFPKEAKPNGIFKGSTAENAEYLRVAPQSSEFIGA

For this test, the target named is recombinant EGFR kinase (Homo sapiens, UniProt P00533). Description: biochemical.

The structures appear in SMILES notation.

With `COc1cc2ncnc(Nc3cccc(Cl)c3)c2cc1OC` [AG1478], the IC50 came to 1.6 nM.
